The values that follow come from patent publication US7955808B2, “Bitter taste receptors” (Deutsches Institut für Ernährungsorschung, Stiftung des …, priority 2002, dated 2011).

Amino acid sequences for entries named in this document (tags omitted).
UniProt P59533, whole entry A49P/I296V: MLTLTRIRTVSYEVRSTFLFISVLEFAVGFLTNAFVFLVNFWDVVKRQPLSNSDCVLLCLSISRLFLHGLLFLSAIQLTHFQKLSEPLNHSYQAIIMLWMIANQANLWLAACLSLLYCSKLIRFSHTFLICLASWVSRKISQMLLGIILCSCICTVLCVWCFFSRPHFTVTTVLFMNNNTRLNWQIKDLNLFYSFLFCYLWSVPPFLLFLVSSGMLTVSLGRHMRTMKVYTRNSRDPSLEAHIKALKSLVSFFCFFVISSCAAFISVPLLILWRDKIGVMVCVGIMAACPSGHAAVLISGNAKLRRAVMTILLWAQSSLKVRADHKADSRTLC

The target of this test is hTAS2R38 (Homo sapiens, UniProt P59533). The test is described as follows: FLIPR assay, heterologous expression of hTAS2R38. It counts as cell-based.

Structures are written as SMILES. pEC50: −log10 of the molar value.

As to `O=c1cc(-c2ccccc2)[nH]c(=S)[nH]1`, the “Approx. Threshold” value is 0.15 µM, the pEC50 is 6.30 and the “receptor activation (in words)” value is reported as “activated”.

By pEC50 is commonly meant the EC50 on a negative log10 scale, so that one unit is a factor of ten. Low values mean a high EC50, high ones a low EC50.
